These are literature values, as cited in article PMC5805549.

Amino acid sequences for entries named in this document (tags omitted).
UniProt P30989, whole entry: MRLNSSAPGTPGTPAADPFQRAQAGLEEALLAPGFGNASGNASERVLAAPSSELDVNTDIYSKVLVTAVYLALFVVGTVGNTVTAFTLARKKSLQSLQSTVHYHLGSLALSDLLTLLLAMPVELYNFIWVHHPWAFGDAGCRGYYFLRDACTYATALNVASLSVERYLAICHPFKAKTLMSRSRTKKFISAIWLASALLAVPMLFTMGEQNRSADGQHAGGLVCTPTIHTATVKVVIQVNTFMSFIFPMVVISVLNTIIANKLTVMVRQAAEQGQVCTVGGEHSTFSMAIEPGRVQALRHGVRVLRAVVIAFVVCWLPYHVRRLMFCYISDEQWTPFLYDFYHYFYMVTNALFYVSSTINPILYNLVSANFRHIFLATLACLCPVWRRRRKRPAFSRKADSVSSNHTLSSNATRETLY

The data set addresses NTSR1 (Homo sapiens) (UniProt P30989).

Turning to neurotensin (from UniProt P30990), the dissociation constant (Kd) was 0.2 nM.
